Test results published in ChEMBL document CHEMBL1221329, “Identification of a novel NR2B-selective NMDA receptor antagonist using a virtual screening approach” (Bioorg Med Chem Lett, 2010).

The chains behind the UniProt entries cited, without tags or fusion partners.
UniProt Q12879, whole entry, looked up: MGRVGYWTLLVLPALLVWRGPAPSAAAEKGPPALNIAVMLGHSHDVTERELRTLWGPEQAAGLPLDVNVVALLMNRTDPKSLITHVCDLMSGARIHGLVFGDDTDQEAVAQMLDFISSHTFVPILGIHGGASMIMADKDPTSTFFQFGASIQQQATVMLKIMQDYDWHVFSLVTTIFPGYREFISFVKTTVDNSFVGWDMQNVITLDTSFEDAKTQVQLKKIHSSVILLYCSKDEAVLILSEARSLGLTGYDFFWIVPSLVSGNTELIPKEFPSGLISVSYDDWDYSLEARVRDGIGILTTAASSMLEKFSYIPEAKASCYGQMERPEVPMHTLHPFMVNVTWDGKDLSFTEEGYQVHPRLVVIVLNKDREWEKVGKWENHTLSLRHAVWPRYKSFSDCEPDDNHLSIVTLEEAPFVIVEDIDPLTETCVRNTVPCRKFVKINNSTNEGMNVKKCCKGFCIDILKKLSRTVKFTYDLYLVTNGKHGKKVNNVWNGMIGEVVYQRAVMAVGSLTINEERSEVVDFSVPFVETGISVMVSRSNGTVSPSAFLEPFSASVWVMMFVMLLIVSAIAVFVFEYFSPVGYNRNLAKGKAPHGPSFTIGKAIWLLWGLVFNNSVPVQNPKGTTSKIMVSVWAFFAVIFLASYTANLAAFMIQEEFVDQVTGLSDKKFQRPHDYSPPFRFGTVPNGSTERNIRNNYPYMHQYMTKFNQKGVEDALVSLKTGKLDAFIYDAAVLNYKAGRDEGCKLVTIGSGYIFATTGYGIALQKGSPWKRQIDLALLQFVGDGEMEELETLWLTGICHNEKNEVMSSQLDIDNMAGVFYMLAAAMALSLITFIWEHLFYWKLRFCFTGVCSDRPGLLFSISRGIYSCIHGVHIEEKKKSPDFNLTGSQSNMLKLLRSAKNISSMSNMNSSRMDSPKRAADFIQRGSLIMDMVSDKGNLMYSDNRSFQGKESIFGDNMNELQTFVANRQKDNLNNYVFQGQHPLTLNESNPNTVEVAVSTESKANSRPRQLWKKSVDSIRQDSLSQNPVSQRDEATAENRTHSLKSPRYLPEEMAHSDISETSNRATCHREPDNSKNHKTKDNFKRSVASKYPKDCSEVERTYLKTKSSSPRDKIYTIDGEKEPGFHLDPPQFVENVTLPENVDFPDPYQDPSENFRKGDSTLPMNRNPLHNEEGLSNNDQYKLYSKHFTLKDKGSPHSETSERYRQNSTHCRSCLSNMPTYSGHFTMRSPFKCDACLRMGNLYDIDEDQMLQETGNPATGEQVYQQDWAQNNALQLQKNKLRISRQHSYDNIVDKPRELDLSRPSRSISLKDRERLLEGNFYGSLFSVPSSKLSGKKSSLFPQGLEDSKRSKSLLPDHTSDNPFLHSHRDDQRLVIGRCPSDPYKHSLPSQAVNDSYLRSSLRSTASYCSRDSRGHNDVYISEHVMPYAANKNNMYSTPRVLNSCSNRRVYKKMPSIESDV
UniProt Q13224, whole entry, looked up: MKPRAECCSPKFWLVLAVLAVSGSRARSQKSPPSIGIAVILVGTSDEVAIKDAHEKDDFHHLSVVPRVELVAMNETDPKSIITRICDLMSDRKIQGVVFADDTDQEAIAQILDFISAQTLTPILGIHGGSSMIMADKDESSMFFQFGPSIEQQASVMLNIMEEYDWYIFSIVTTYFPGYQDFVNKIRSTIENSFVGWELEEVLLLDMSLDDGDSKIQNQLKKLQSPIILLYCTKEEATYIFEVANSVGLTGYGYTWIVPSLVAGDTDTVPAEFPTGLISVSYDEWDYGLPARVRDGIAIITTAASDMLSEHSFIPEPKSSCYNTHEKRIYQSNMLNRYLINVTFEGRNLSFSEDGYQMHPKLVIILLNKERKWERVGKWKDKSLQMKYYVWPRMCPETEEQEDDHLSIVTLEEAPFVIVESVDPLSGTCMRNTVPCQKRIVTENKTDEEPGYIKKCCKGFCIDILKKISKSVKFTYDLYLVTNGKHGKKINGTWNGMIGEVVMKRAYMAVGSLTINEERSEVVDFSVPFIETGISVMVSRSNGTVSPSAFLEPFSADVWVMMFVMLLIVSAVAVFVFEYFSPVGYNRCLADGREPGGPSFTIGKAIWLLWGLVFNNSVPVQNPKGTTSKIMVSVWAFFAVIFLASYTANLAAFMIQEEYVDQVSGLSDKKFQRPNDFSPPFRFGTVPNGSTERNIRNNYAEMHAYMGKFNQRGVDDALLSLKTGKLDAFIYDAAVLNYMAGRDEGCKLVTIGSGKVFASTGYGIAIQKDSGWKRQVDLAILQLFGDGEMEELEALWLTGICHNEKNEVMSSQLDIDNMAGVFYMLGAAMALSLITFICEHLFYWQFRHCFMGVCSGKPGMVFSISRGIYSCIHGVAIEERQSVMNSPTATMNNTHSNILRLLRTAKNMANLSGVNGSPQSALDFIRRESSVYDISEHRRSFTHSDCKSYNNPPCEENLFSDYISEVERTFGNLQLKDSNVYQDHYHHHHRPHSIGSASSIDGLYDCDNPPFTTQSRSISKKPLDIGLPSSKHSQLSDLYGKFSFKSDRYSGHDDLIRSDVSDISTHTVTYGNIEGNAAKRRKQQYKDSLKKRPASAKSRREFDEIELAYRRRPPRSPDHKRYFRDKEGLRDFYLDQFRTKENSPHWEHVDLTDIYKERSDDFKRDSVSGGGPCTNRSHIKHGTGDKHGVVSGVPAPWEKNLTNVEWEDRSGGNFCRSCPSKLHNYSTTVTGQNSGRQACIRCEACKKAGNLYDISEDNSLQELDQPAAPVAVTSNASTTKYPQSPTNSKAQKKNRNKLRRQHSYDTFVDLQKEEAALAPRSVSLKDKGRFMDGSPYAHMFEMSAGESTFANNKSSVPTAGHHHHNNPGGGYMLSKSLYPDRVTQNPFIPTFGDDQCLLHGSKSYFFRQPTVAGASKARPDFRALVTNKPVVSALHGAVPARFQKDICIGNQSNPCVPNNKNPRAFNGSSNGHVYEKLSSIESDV

Experiments:
Type in all cases: functional, cell-based
Conditions in all cases: Oocyte
[1] = target: Glutamate NMDA receptor; GRIN1/GRIN2A (Homo sapiens) (UniProt Q05586+Q12879); test: Antagonist activity at wild type NR1/NR2A receptor expressed in Xenopus oocytes assessed as ratio of residual current induced by agonist in presence of compound to residual current induced by agonist alone at 10 uM by two-electrode voltage-clamp method
[2] = target: T1, Glutamate NMDA receptor; GRIN1/GRIN2B (Homo sapiens, UniProt Q05586+Q13224); test: Antagonist activity at wild type NR1/NR2B receptor expressed in Xenopus oocytes assessed as inhibition of agonist-induced current amplitude at 10 uM by two-electrode voltage-clamp method
[3] = target: T1, Glutamate NMDA receptor; GRIN1/GRIN2B; test: Antagonist activity at wild type NR1/NR2B receptor expressed in Xenopus oocytes assessed as ratio of residual current induced by agonist in presence of compound to residual current induced by agonist alone at 10 uM by two-electrode voltage-clamp method

Question: With `CCCN1C(N2CCN(CC(=O)c3cc4ccccc4[nH]3)CC2)=NC2C1C(=O)NC(=O)N2C` (stereo not drawn) as the compound, how does the Ratio [1] read?
Answer: 0.98

Question: And the inhibition [2]?
Answer: < 20%

Question: What about the Ratio [3] of the same compound?
Answer: 0.95
